The list shows a part of the results.
System: A. baumannii ATCC 17978
Assay: relative growth (fraction of control); higher = less inhibition
Details: 50 µM

Which relative growth does the source give for `C[C@@H](NC(=O)C[C@@H]1C=C[C@@H](NC(=O)CN2CCOCC2)[C@@H](CO)O1)c1ccccc1` here?
Its relative growth is 1.06.

With `O=C(C[C@@H]1C=C[C@H](NC(=O)Cc2ccccn2)[C@H](CO)O1)NCCCN1CCOCC1` as the compound, how does the relative growth read?
The relative growth was 1.02.

With `O=C(O)CCCCCCCC(O)C(O)CCCCCCO` (stereo not drawn) as the compound, how does the relative growth read?
Its relative growth is 1.03.

For `CO[C@H]1CN(C)C(=O)c2ccc(NC(=O)Nc3ccccc3)cc2OC[C@@H](C)N(C(=O)CN(C)C)C[C@@H]1C`, which relative growth is on record?
Its relative growth is 1.02.

`COc1ccc(S(=O)(=O)N2C[C@@H](O)COC[C@H]3O[C@H](CC(=O)N[C@H]4CCN(Cc5ccccc5)C4)CC[C@@H]32)cc1` was tested. Which relative growth did it give?
The relative growth was 0.926.

`COc1ccc2c(=O)cc(-c3ccccc3OC)oc2c1` was tested. Which relative growth did it give?
Its relative growth is 1.2.

`COc1cccc(S(=O)(=O)N[C@H]2C=C[C@H](CC(=O)NC3CCC3)O[C@@H]2CO)c1` was tested. Which relative growth did it give?
The relative growth was 1.1.

With `COC(=O)[C@@]1(C)CCC[C@]2(C)c3ccc(O)c(C(C)C)c3CCC12` (stereo partly drawn) as the compound, how does the relative growth read?
The relative growth was 0.975.

With `S=C1NCN(Cc2ccncc2)CN1` as the compound, how does the relative growth read?
Its relative growth is 0.941.

How did the relative growth turn out when `C[C@@H]1CN([C@H](C)CO)S(=O)(=O)c2ccc(C#Cc3ccncc3)cc2O[C@@H]1CN(C)C(=O)C1CCC1` was run?
The relative growth was 1.04.

`CC1(C)O[C@@H]2C[C@H]3[C@@H]4C[C@H](F)C5=CC(=O)C=C[C@]5(C)[C@H]4[C@@H](O)C[C@]3(C)[C@]2(C(=O)CO)O1` was tested. Which relative growth did it give?
Its relative growth is 0.989.

For `C[C@H]1CN([C@@H](C)CO)C(=O)c2cc(C#CC3(O)CCCC3)cnc2O[C@@H]1CN(C)C(=O)C1CCCCC1`, which relative growth is on record?
Its relative growth is 0.992.

`Cc1cc(C)c(C)c(C(=O)O)c1C` was tested. Which relative growth did it give?
The relative growth was 0.879.

Which relative growth does the source give for `C[C@H](NC(=O)C[C@H]1C[C@H]2c3cc(NC(=O)Nc4ccc(C(F)(F)F)cc4)ccc3O[C@H]2[C@H](CO)O1)c1ccccc1` here?
Its relative growth is 0.754.

Which relative growth does the source give for `CC(C)CCCC(C)[C@H]1CCC2C3CC=C4C[C@@H](O)CC[C@]4(C)C3CC[C@@]21C` (stereo partly drawn) here?
The relative growth was 0.989.

For `CN1CCCN(C[C@@]2(O)CCNC2)CC1`, which relative growth is on record?
Its relative growth is 1.03.

`C[C@H](CS)C(=O)N1CCC[C@H]1C(=O)O` was tested. Which relative growth did it give?
Its relative growth is 1.03.

For `O=S(=O)([O-])CCS.[Na+]`, which relative growth is on record?
The relative growth was 1.08.

With `C=CCN1C(C)=N[C@H]2C=C[C@H](NCCCO)[C@H]21` as the compound, how does the relative growth read?
Its relative growth is 1.03.

Which relative growth does the source give for `O=C(C[C@@H]1C=C[C@@H](NC(=O)CN2CCOCC2)[C@@H](CO)O1)NCc1cccc(F)c1` here?
Its relative growth is 0.954.

`CC(C)CCC[C@@H](C)[C@H]1CC[C@H]2[C@@H]3C[C@@H](O)[C@@]4(O)C[C@@H](O)CC[C@]4(C)[C@H]3CC[C@]12C` [CHOLESTAN-3beta,5alpha,6beta-TRIOL] was tested. Which relative growth did it give?
Its relative growth is 1.08.

How did the relative growth turn out when `O=C(C[C@@H]1C=C[C@@H](NC(=O)Cc2ccccn2)[C@@H](CO)O1)NCCCN1CCOCC1` was run?
The relative growth was 0.961.

For `C=C(NC(=O)C(=C)NC(=O)c1csc(C2=N[C@@H]3c4csc(n4)[C@@H]4NC(=O)c5csc(n5)[C@H](C(C)(O)[C@@H](C)O)NC(=O)[C@H]5CSC(=N5)/C(=C/C)NC(=O)[C@H]([C@@H](C)O)NC(=O)c5csc(n5)[C@]3(CC2)NC(=O)[C@@H](C)NC(=O)C(=C)NC(=O)[C@@H](C)NC(=O)[C@@H]([C@H](C)CC)N[C@H]2C=Cc3c([C@@H](C)O)cc(nc3[C@@H]2O)C(=O)O[C@H]4C)n1)C(N)=O` (stereo partly drawn), which relative growth is on record?
Its relative growth is 0.949.

Source: published antibiotic growth screens (doi:10.1038/s41589-023-01349-8)
